{"source": "patent US10682361B2", "about": "“Sustained release bimatoprost, bimatoprost analogs, prostamides and prostaglandins for fat reduction” (ALLERGAN, INC., priority 2013, dated 2020)", "assay": "2-D MR image after injection into gastrocnemius muscle (depot localization)", "format": "in vivo", "details": "40 minutes post-injection, MGL and MGM muscle groups", "description": "The right leg was injected with HA/Albumin-Gadolinium, the left leg with Albumin-Gadolinium alone;\nThe right leg was injected with HA/Albumin-Gadolinium, the left leg with Albumin-Gadolinium alone."}
{"substance": "Albumin-Gadolinium: Albumin-Gadolinium MR contrast marker injected alone into the left leg", "values": [{"measurement": "spread or localization in muscle on MR image", "result": "diffuse spread"}]}
